Test results published in patent publication US8877748B2, “Heterocyclic fused anthraquinone derivatives, manufacturing method and pharmaceutical composition using thereof” (National Defense Medical Center, priority 2012, dated 2014).

Test system: PC-3 prostate cancer cell line
Assay: SRB assay cell viability, PC-3 prostate cancer cell line
Assay type: cell-based, human
Details: read-out: SRB assay: 50% inhibition of cancer cell proliferation of sample concentration (IC50) of PC-3 prostate cancer cell line, Table II prints no unit, μM printed

`CC(C)CNc1cc2c(c3nsnc13)C(=O)c1ccccc1C2=O` showed an IC50 of 0.74 µM.
